FN deposit inh: inhibitors of fibronectin matrix deposition, primary screen, AH1F cells, Alexa488-fibronectin fluorescence, plate reader. AH1F fibroblasts, overnight. inhibition, % at 12.6 µM. 0.086% of 350,000 active. AID 743247, 2014;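 active means mean inhibition across replicates of 30% or more, regardless of how many single replicates reach that level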
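material = AH1F fibroblast monolayer depositing Alexa488-labelled fibronectin into matrix | amount = 10000 AH1F cells/well | buffer or medium = DMEM plus 2% serum, read in PBS | incubation = 1 h cell adhesion before compound, then overnight fibronectin incubation | detection = fluorescence at 485 nm excitation, 525 nm emission | evaluation = percent inhibition as loss of matrix-bound fibronectin fluorescence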
iPSC survival up: enhancers of single-cell hiPSC survival, primary screen, ATPlite luminescence; 100% = ROCK inhibitor wells, 0% = DMSO; 0.044% of 360,000 active; survival enhancement, % at 20 µM; in the data active means survival enhancement above about 18%;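 further: cells exposed to compounds for 16 hours before the ATP read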
C2C12 statin: suppressors of statin myotoxicity in C2C12 myotubes, primary screen, cell-based, single point, plate reader | C2C12 myotubes + simvastatin, ATP luminescence, 48 h; scaled: DMSO 0, geranylgeraniol control 100 | rescue of ATP level, % at 7.49 µM | 0.78% of 330,000 active | AID 602340, 2012;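 active means mean ATP rescue above about 67%, or every replicate alone reaching that limit, limit read from the data, passing the limit was not always enough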;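 further: myotubes were challenged with 10 µM simvastatin during compound exposure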
Yeast UUG start-1: yeast start codon fidelity modulation. S. cerevisiae UUG-firefly luciferase reporter, luminescence/redox ratio. activity score, % at 18.7 µM. 0.13% of 350,000 active;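 active = replicate mean at a twofold rise or more, about +100% in these data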;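 also: firefly luciferase made from a UUG start codon reports start codon fidelity; reporter light over untreated wells divided by growth signal over untreated wells; some hits fall short of that in this replicate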
PGC1a acetyl inh: inhibitors of PGC1a acetylation signal, primary screen, cell-based, U2OS, AlphaScreen, inhibitor mode; AlphaScreen anti-acetyl-lysine; with virally co-expressed GCN5 acetyltransferase; inhibition, % at 15.6 µM; 0.17% of 350,000 active; AID 651687, 2012;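 active means every replicate shows inhibition of at least 40%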
Yeast UUG start-2: enhancers of UUG start codon usage in yeast, dose response, S. cerevisiae, UUG firefly luciferase, cherry-pick, set 2; shares compounds with Yeast UUG start-1; luminescence, 4 h; 100% means double the DMSO signal; activation, % at 38 µM; 540 tested, under 10 active; AID 652061, 2013;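 active means signal increase whose fitted curve reaches an absolute level of 40 at a concentration under 10 µM; inactive means activity opposite to the expected increase, or the rest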
Numbers stand for hits; - = inactive; . = no result. Shown are actives, neighbours in structure and some others; about 0.91% of the full set was active somewhere.

SMILES	FN deposit inh	iPSC survival up	C2C12 statin	Yeast UUG start-1	PGC1a acetyl inh	Yeast UUG start-2
CC(C)C[C@@H](CNCC(=O)[C@H](CC(C)C)NC(=O)c1[nH]cnc1C(=O)N[C@@H](C)CN)NC(=O)c1nc[nH]c1C(=O)N[C@@H](C)C(=O)O	-	-	-	135.2	-	-
CC(C)C[C@@H](CN)NC(=O)c1nc[nH]c1C(=O)N[C@@H](C)C(=O)CNC[C@H](C)NC(=O)c1nc[nH]c1C(=O)N[C@@H](CC(=O)O)C(=O)O	-	-	-	-	-	.
CC(C)C[C@@H](CN)NC(=O)c1nc[nH]c1C(=O)N[C@@H](C)C(=O)CNC[C@H](CC(C)C)NC(=O)c1nc[nH]c1C(=O)N[C@@H](CC(=O)O)C(=O)O	-	-	-	-	-	.
CC(C)C[C@@H](CN)NC(=O)c1nc[nH]c1C(=O)N[C@@H](Cc1ccccc1)C(=O)CNC[C@H](C)NC(=O)c1nc[nH]c1C(=O)N[C@@H](C)C(=O)O	-	-	-	-	-	.
CC(C)C[C@@H](CN)NC(=O)c1nc[nH]c1C(=O)N[C@@H](Cc1c[nH]c2ccccc12)C(=O)CNC[C@H](C)NC(=O)c1nc[nH]c1C(=O)N[C@@H](C)C(=O)O	-	-	-	166.5	-	-
CC(C)C[C@@H](CNCC(=O)[C@H](CC(=O)O)NC(=O)c1[nH]cnc1C(=O)N[C@H](CN)CC(C)C)NC(=O)c1nc[nH]c1C(=O)N[C@@H](C)C(=O)O	-	-	-	137.5	-	-
CO[C@H]1CN(C)C(=O)c2ccc(NS(=O)(=O)c3ccc(Cl)cc3)cc2OC[C@H](C)N(C)C[C@H]1C	-	.	-	-	-	.
CC(C)N(C[C@H]1[C@H](c2ccccc2)[C@H](CO)N1S(C)(=O)=O)C(=O)CN(C)C	-	.	-	-	-	.
CC(C)N(C[C@H]1[C@H](c2ccccc2)[C@@H](CO)N1S(C)(=O)=O)C(=O)CN(C)C	-	.	-	163.7	-	-
CO[C@@H]1CN(C)C(=O)c2ccc(NC(=O)c3cnccn3)cc2OC[C@@H](C)N(C(=O)c2cnccn2)C[C@H]1C	-	.	-	-	-	.
O=C(Cc1ccccc1)N1C[C@H]2[C@@H](c3ccccc31)[C@@H](CO)N2C(=O)C1CCOCC1	.	.	-	116.0	-	-
COC(=O)c1c2oc(c1C(=O)OC)C(=O)N[C@@H](Cc1ccccc1)Cn1cc(nn1)CNC(=O)[C@@H](Cc1ccccc1)NC(=O)N[C@@H](CO)CC2	.	.	.	115.5	-	-
COc1ccc2oc(C(=O)OCC(=O)N(C)Cc3ccccc3)c(C)c2c1	-	-	-	-	.	-
COc1ccc2oc(C(=O)OCC(=O)NCc3ccc(OC)c(OC)c3)c(C)c2c1	-	-	-	-	-	-
COc1ccc2oc(C(=O)OCC(=O)NC(C)c3ccccc3)c(C)c2c1 (stereo unspecified)	-	-	.	-	.	-
COc1ccc2oc(C(=O)OCC(=O)Nc3ccccc3)c(C)c2c1	.	-	.	-	-	.
Cc1cccc(S(=O)(=O)N2C[C@H](O)COC[C@@H]3O[C@H](CC(=O)N4CCN(C)CC4)CC[C@H]32)c1	-	.	-	-	-	.
C[C@@H]1CCCCO[C@H](CN(C)C(=O)Nc2cccc3ccccc23)[C@@H](C)CN([C@H](C)CO)C(=O)c2cc(NC(=O)Nc3ccc(C(F)(F)F)cc3)ccc2O1	.	.	-	-	-	.
COC1(OC)C(/C=C/c2ccc(C)cc2)C(C#N)(C#N)C1(OC)OC (stereo unspecified)	-	-	-	548.6	-	-
O=C(NCC1OCCc2ccccc21)c1ccco1 (stereo unspecified)	.	-	-	322.9	-	-
Cn1nc(CC(=O)NC2CCCCC2)c2ccccc2c1=O	.	-	-	.	-	-
Cn1nc(CC(=O)NC2CCCCCC2)c2ccccc2c1=O	-	-	-	-	-	-
C[C@@H]1CCCCO[C@@H](CN(C)C(=O)Cc2ccccc2)[C@@H](C)CN([C@@H](C)CO)C(=O)c2cc(NC(=O)Nc3ccc4c(c3)OCO4)ccc2O1	.	.	.	-	-	.

Source: PubChem BioAssay
